The assay has as its target human D3R (Homo sapiens, UniProt P35462). The assay is described as follows: [3H]-spiperone filtration binding assay on membranes from CHO–hDRD3 cells. Conditions: for Inhibition Rate at 10 µM: 10 µM test compound, displacement of [3H]-spiperone; for IC50: concentration-displacement curves, [3H]-spiperone. (In general: Loss of bound radioactivity is the signal in a displacement assay; it reports binding, not function.)

Sequences of proteins named here, by UniProt entry; tags and fusion partners are left off. A change or cut given only in a name is not applied to a line headed by its entry.
UniProt P35462, whole entry: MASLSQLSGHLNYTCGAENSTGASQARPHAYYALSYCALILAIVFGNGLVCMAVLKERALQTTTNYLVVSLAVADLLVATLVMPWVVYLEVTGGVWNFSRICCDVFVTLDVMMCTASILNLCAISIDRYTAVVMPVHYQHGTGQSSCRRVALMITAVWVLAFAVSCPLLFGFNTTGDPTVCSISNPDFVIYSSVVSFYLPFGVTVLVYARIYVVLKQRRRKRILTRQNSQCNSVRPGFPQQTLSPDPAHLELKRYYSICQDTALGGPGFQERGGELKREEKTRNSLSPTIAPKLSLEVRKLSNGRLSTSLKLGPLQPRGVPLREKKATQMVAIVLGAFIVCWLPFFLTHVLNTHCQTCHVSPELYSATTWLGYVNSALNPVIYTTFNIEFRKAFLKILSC

Molecules are shown by their SMILES.

A word on the IC50: it is the concentration at which inhibition is half-maximal.

Take `O=C(c1cccn2c(=O)c3cc4ccccc4cc3nc12)N1CCN(c2ncccn2)CC1`: the “Inhibition Rate at 10 µM” value turned out to be 84.2% and the IC50 was 4.53 µM.
In the same order, the values of `O=c1c2ccccc2n2c(=O)n(Cc3ccccc3)nc2n1CCc1ccccc1` are 91.1% and 3.45 µM.
The corresponding values for `Clc1ccc(Cn2cc3c(-c4ccc5c(c4)OCO5)nnc-3c3cc4c(cc32)OCO4)cc1` are 82.4% and 4.51 µM.
The corresponding values for `CN1CCN(c2cc(-c3nc(-c4ccc(Cl)cc4)no3)c3ccccc3n2)CC1` are 89.3% and 4.11 µM.
On to `O=C(Cn1nc2n(CCc3ccccc3)c(=O)c3ccccc3n2c1=O)c1cccc(Cl)c1`, for which the “Inhibition Rate at 10 µM” value stood at 80.1% and the IC50 worked out at 5.98 µM.
In the case of `O=S(=O)(c1ccccc1F)N1CCC(c2nc(O)c3nnn(Cc4ccc5c(c4)OCCO5)c3n2)CC1`, the “Inhibition Rate at 10 µM” value was 82.3% and the 50% inhibitory concentration (IC50) turned out to be 4.49 µM.
